Laboratory results from US12486265B2, “2-aminopyrimidine compounds and pharmaceutical compositions and uses thereof” (Shanghai Zhimeng Biopharma, Inc., priority 2019, dated 2025).

Biological target: T1, human TLR8 (Homo sapiens, UniProt Q9NR97)
T1 construct: host or cells: HEK-Blue hTLR8 (HEK293-derived)
T1 sequence (Q9NR97 27-1041): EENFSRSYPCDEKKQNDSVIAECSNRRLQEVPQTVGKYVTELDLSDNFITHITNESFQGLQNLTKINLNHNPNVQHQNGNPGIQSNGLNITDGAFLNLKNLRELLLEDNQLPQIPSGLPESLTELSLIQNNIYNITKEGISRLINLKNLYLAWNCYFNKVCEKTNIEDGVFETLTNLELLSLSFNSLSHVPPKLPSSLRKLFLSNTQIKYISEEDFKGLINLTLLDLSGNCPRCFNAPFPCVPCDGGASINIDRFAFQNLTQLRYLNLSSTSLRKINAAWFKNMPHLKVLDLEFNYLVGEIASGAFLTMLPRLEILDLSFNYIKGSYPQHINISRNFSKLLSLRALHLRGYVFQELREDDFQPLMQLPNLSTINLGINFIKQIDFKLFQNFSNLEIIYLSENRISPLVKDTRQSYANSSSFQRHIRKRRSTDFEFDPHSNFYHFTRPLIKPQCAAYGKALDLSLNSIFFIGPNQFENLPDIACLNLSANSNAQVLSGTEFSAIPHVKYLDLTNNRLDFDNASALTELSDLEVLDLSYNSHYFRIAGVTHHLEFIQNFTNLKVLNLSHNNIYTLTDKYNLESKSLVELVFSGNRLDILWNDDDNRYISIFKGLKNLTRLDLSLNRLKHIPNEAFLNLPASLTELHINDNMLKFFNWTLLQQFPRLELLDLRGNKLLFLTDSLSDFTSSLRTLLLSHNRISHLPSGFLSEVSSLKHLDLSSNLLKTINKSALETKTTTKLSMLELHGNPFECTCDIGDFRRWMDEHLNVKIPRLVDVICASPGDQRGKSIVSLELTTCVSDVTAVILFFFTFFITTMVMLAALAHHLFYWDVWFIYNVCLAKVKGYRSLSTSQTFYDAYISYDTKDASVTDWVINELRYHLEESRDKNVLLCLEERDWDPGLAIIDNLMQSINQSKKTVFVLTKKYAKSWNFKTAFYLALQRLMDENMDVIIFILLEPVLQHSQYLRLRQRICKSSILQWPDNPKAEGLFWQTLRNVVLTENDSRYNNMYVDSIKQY
Assay: hTLR8 receptor binding activity in vitro (HEK-Blue hTLR8 SEAP reporter)
Type: cell-based
Protocol: The ability of the compounds of the present invention to activate TLR7 and TLR8 respectively was evaluated by using receptor binding experiments in vitro.
HEK-Blue™ hTLR7 (article number: hkb-htlr7) and HEK-Blue™ hTLR8 (article number: hkb-htlr8) cells were purchased from InvivoGen company. HEK-Blue™ hTLR7/8 cells can indicate the activation of TLR7/8 by detecting the activation level of NF-κB signaling pathway. HEK-Blue™ hTLR7/8 cells are derived from human embryonic kidney 293 cells, stably expressing human TLR7 or human TLR8, respectively, and can induce expression of secretory alkaline phosphatase (SEAP) to report gene system. The expression of SEAP reporter gene is regulated by IFN-β simplified promoter, which is composed of 5 NF-κB binding sequences and AP-1 binding sequences. Therefore, when TLR7/8 is activated in these two cells, NF-κB and AP-1 will be activated, and SEAP expression and extracellular secretion will be induced. […]
[drawing 45] per well; • (2) HEK-Blue™ hTLR7/8 cells were digested separately, counted, and the cells at 5.0×10^4 cells per well were added to a 96-well cell culture plate containing compounds; (3) The cells added with the compound were placed in a 5% CO2 incubator at 37° C. for 24 hours; • (4) Compound activity detection: took 20 µl/well cell culture supernatant and added it to 96-well plate containing 180 μl QUANTI-BLUE™ reagent. […]

**Q.** For `CCCC[C@](C)(CNC(C)=O)Nc1nc(N)nc2cc(C(=O)N(C)C)cnc12` [Compound A], which EC50 is on record?
**A.** 52 nM

**Q.** What about the “selectivity for TLR8 activation” value (TLR8 versus TLR7, compared with compound X) of the same compound?
**A.** higher selectivity for TLR8 activation than compound X
